Most compounds without a hit are left out; they make up all but 2.3% or so of the library.
A549 tox: counter-screen for Nrf2 inhibitors: cytotoxicity in A549 cells. A549 ARE-Fluc cells, CellTiter-Fluor viability, 18-24 h. Potency, µM (highest dose often 46 µM), for inactives: at the highest dose activity change, negative = cytotoxicity, hits mostly inhibitors. 390,000 compounds, 0.16% hits. AID 504648; further: potency means the concentration at half of the fitted maximal effect; on the % scale 0 is the no-effect control and ±100 the full control effect
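A549 ARE_Fluc cells in 5% FBS OPTI-MEM were exposed to compounds in concentration-response for 18-24 h at 37 deg C. Viability was read by CellTiter-Fluor fluorescence (Ex 405/Em 525) after 30 min, before the luciferase read.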
Nrf2 block: inhibitors of Nrf2 signaling; AID 504444; A549 ARE-Fluc reporter, luciferase luminescence, 18-24 h; 360,000 compounds, 2.1% hits; Potency, µM (series often up to 46 µM), without a hit: at the highest dose activity change, negative = inhibition, usual class: inhibitors; further: potency means the concentration at half of the fitted maximal effect; on the % scale 0 is the no-effect control and ±100 the full control effect; nearly all actives have a fitted effect of over 60% in size
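A549 ARE_Fluc cells, 5000/well, 5% FBS OPTI-MEM; compounds in dose-response, 18-24 h at 37 °C/5% CO2; CellTiter-Fluor viability read (Ex 405/Em 525), then BugLite luciferase luminescence = Nrf2 activity.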
Mito fusion act: blocks mitochondrial division or promotes mitochondrial fusion | S. cerevisiae fusion-defective mutant growth rescue, CellTiterGlo 48 h | Potency, µM (series often up to 46.1 µM), without a hit: at the top dose growth rescue (activation), actives largely listed as activators | 320,000 compounds, 0.23% hits; further: potency means the concentration at half of the fitted maximal effect; % of control where 0% means no effect; nearly all actives have a fitted effect of over 45% in size
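Temperature-sensitive fusion-defective S. cerevisiae (e.g. fzo1-1, mgm1-5) were grown with compound in YPEG medium (3% ethanol, 3% glycerol) for 48 hours at 37C. Growth rescue was measured as viability by CellTiterGlo luminescence after 10 minutes at ambient.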
Nrf2 activator: Nrf2 pathway activation; AREc32 ARE-luciferase reporter (MCF7-derived line), luminescence, 24 h; Potency, µM (highest dose often 46.1 µM), for the others: top-dose activation, usual class: activators; 410,000 compounds, 0.31% hits; further: potency means the concentration at half of the fitted maximal effect; % of control where 0% means no effect; nearly all actives have a fitted effect of over 65% in size
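AREc32 cells carrying an ARE-driven firefly luciferase reporter were seeded at 1000 cells/well in OPTI-MEM with 5% FBS, then exposed to compound for 24 hr at 37 deg C. Luminescence was read with Steady-Glo after 30 min at RT.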
miR-21 FLuc: miR-21 reporter, rising signal | HeLa miR-21 FLuc reporter, luciferase, 48 h | Potency, µM (highest dose often 38.3 µM), for inactives: at the top dose reporter change, positive = more light | 340,000 tested, under 10 active | AID 2288; active = well fitted rising curve with a large enough effect; inconclusive = small, poorly fitted or top-dose-only effect; inactive = no such curve, though single readings can be large or run the other way;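 further: % of control where 0% means no effect; miR-21 action dims this reporter so a rising signal means less miR-21 action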
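Using DMEM plus 10% FBS, HeLa miR-21-FLuc cells are incubated with test compounds (final up to about 40uM) for 48 hours; firefly luciferase signal is then imaged following reagent-mediated lysis.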
Numbers without * were called inactive; ? = inconclusive; nt = no result given; ! = not active in a repeat; [ ] = remark or other dose. Unless noted, the call rests on the fitted dose curve; in most records, active means well fitted curve in the direction sought with a large enough effect; inconclusive means small, poorly fitted or top-dose-only effect, or another doubt; inactive means no such curve, though single readings can be large; an effect the other way counts as inactive or inconclusive.

Values in the order: A549 tox	Nrf2 block	Mito fusion act	Nrf2 activator	miR-21 FLuc
1	CCS(=O)(=O)c1ncc(Cl)c(C(=O)N2CCN(c3cccc(Cl)c3)CC2)n1
    ?	23µM*	nt	-6%	?
2	CS(=O)(=O)c1ncc(Cl)c(C(=O)N2CCN(c3cccc(Cl)c3)CC2)n1
    18µM*	7.3µM*	nt	-6%	?
3	CN(CC(=O)Nc1ccc(Br)cc1)S(=O)(=O)c1cccc2nsnc12
    0%	?	nt	1%	12%
4	CC1CCCN(C(=O)c2ccc(OC3CCN(CCc4ccccc4)CC3)cc2)C1 (stereo unspecified)
    1%	16µM*	-11%	0%	2%
5	COC(=O)c1ccc2nc(NC(=O)C3CCCCC3)sc2c1
    1%	?	0%	2%	-37%
6	COC(=O)c1ccc2nc(NC(=O)C(C)(C)C)sc2c1
    -5%	4.1µM*	12%	0%	?
7	c1ccc(CNCc2nnc(-c3cc4ccccc4[nH]3)s2)cc1
    -2%	?	nt	nt	nt
8	COc1cc2ncnc(Nc3cccc(Cl)c3)c2cc1OC
    nt	nt	3.3µM*!	nt	6%
9	Cc1c(P(=S)(c2ccccc2)c2ccccc2)c2ccccc2n1C/C=C/c1ccccc1
    -1%	8%	nt	nt	nt
10	CCOC(=O)C(=Cc1cc(=O)c(OC)co1)C(=O)OCC
    15µM*	9.2µM*	1%	-3%	?
11	O=C(Nc1cccc(S(=O)(=O)Nc2ccc(Cl)cc2)c1)c1cc2c(s1)CCCC2
    ?	23µM*	17%	8%	28%
12	Cc1ccc(C(=O)Nc2ccc(C)c(S(=O)(=O)Nc3ccccc3Cl)c2)s1
    1%	?	-6%	3%	18%
13	Cc1ccc(NC(=O)c2cc3c(s2)CCCC3)cc1S(=O)(=O)Nc1ccccc1Cl
    -20%	7.3µM*	15%	3%	17%
14	O=C(Nc1cc(S(=O)(=O)Nc2ccccc2Cl)ccc1O)c1cc2c(s1)CCCC2
    1%	6%	-1%	0%	-2%
15	CC(C)CC(=O)Nc1ccc(S(=O)(=O)Nc2cc3c(cc2N2CCOCC2)n(C)c(=O)c(=O)n3C)cc1
    -12%	?	nt	4%	-2%
16	Cc1ccc(C(=O)NCC(=O)OCc2cc(=O)n3nc(C4CCCCC4)sc3n2)cc1
    0%	-8%	nt	0%	0%
17	COCCN(Cc1cc2cc(C)cc(C)c2nc1Cl)C(=O)Nc1ccccc1
    -18%	6%	12%	0%	9%
18	Cc1cc(C)c2nc(Cl)c(CN(Cc3ccco3)C(=O)Nc3ccccc3C)cc2c1
    -21%	?	7.1µM*	0%	10%
19	CCc1nn(CC(=O)NCC(C)c2ccccc2)c(=O)c2cc3c(OC)cccc3n12 (stereo unspecified)
    1%	15%	nt	0%	-4%
20	CCOC(=O)c1cccc(NC(=O)c2cc3cc4cc(OC)ccc4nc3s2)c1
    ?	23µM*	nt	0%	-3%

Among those listed so far, five contain two or more sulfur atoms:
Values in the order: A549 tox	Nrf2 block	Mito fusion act	Nrf2 activator	miR-21 FLuc
3	CN(CC(=O)Nc1ccc(Br)cc1)S(=O)(=O)c1cccc2nsnc12
    0%	?	nt	1%	12%
11	O=C(Nc1cccc(S(=O)(=O)Nc2ccc(Cl)cc2)c1)c1cc2c(s1)CCCC2
    ?	23µM*	17%	8%	28%
12	Cc1ccc(C(=O)Nc2ccc(C)c(S(=O)(=O)Nc3ccccc3Cl)c2)s1
    1%	?	-6%	3%	18%
13	Cc1ccc(NC(=O)c2cc3c(s2)CCCC3)cc1S(=O)(=O)Nc1ccccc1Cl
    -20%	7.3µM*	15%	3%	17%
14	O=C(Nc1cc(S(=O)(=O)Nc2ccccc2Cl)ccc1O)c1cc2c(s1)CCCC2
    1%	6%	-1%	0%	-2%

(further entries)
Values in the order: A549 tox	Nrf2 block	Mito fusion act	Nrf2 activator	miR-21 FLuc
21	CCN(CCCNC(=O)c1cc2cc3ccc(C)cc3nc2s1)c1ccccc1
    1%	1%	nt	5%	-12%
22	CCN(CCCNC(=O)c1cc2cc3cc(OC)ccc3nc2s1)c1cccc(C)c1
    -13%	26µM*	nt	1%	-7%
23	O=c1c2ccccc2sc2ccc(C#CC3(O)CCCCC3)cc12
    0%	21µM*	nt	-1%	nt
24	COc1cccc2sc3ccc(C#CC4(O)CCCCC4)cc3c(=O)c12
    -11%	?	-11%	7%	-28%
25	Cc1sc2ncnc(SCc3ccco3)c2c1C
    9%	-9%	-16%	3.2µM*	-3%
26	COc1ccc(C(=O)N(Cc2ccccc2)Cc2cccs2)c(O)c1
    -1%	10%	nt	nt	nt
27	Cc1ccc(N2CCN(S(=O)(=O)c3ccc4c(c3)CC(=O)N4)CC2)cc1
    8%[92.2 µM]	14%[92.2 µM]	nt	nt	nt
28	O=C(CSc1ncnc2c1oc1ccccc12)c1cccs1
    -3%	?	2%	3.5µM*	-51%
29	Cc1nc(SCC(=O)c2cccs2)c2oc3ccccc3c2n1
    -5%	-13%	8%	13%	-59%
30	COc1ccc(N2CCN(C(=O)c3cn(C)c4ccc(S(=O)(=O)N(C)C5CCCCC5)cc4c3=O)CC2)cc1
    -1%	8%	nt	0%	0%
31	CC(=O)c1[nH]c(C)c(C(=O)N2CCCC(Nc3cccc(F)c3)C2)c1C (stereo unspecified)
    -7%	1%	5%	0%	1%
32	CC(=O)c1[nH]c(C)c(C(=O)N2CCCC(Nc3ccc(C(C)C)cc3)C2)c1C (stereo unspecified)
    ?	15µM*	0%	0%	-1%
33	Cc1nnc(NC(=O)C2CCN(C(=O)c3ccsc3)CC2)s1
    3%	-4%	nt	nt	nt
34	Cc1nc2ccccc2c2oc(C(=O)NCCCN3CC(C)CC(C)C3)cc12 (stereo unspecified)
    -11%	3%	-6%	7%	5%
35	Cc1ccc2c(=O)cc(C(=O)NCc3ccccc3)oc2c1C
    1%	-23%	13µM*	0%	0%
36	Cc1nc2ccccc2c2oc(C(=O)NCCCN3CCCC(C)C3)cc12 (stereo unspecified)
    21µM*	?	-2%	8%	22%
37	Cc1ccc(CNC(=O)c2cc3c(C)nc4ccccc4c3o2)cc1
    -2%	18µM*	11%	0%	21%
38	Cc1ccc(NC(=O)c2ccc(-n3nncc3-c3ccccc3)cc2)cc1
    -11%	?	nt	nt	nt
39	O=C(c1cc(C2CC2)nn1-c1ccccc1)N1CCN(Cc2ccccc2F)CC1
    0%	-23%	28%	-1%	nt
40	O=C(c1cc(C2CC2)nn1-c1ccccc1)N1CCN(Cc2ccc(Cl)cc2)CC1
    -14%	?	20µM*	7%	nt
41	COc1ccc(OC)c(S(=O)(=O)N2CCN(C(=O)c3cc(C4CC4)nn3-c3ccccc3)CC2)c1
    -9%	26µM*	7%	0%	nt
42	O=C(c1cc(C2CC2)nn1-c1ccccc1)N1CCN(S(=O)(=O)c2ccccc2)CC1
    6%	-16%	12%	-1%	nt
43	C=CC[n+]1c(-c2ccc(Cl)cc2Cl)csc1Nc1ccc(NC(C)=O)cc1
    -15%	12µM*	2%	-2%	?
44	C=CC[n+]1c(-c2ccc(Cl)cc2Cl)csc1Nc1c(C)n(C)n(-c2ccccc2)c1=O
    -19%	?	10%	2%	23%
45	COc1ccc(CNC(=O)Cc2c(C)c3c(cc(C)c4c(C)coc43)oc2=O)cc1OC
    -15%	4%	nt	-1%	6%
46	Cc1ccc(C2(c3noc(CN(C)Cc4cccnc4)n3)CCCC2)cc1
    -5%	4%	28µM*	0%	0%
47	CC1=CC(C)(C)N2C(=O)C3(NCCc4c3[nH]c3ccccc43)c3cc(C)cc1c32 (stereo unspecified)
    12µM*	?	-11%	3%	18%
48	CN1C(=O)C2(NCCc3c2[nH]c2ccccc32)c2ccccc21 (stereo unspecified)
    -16%	0%	0%	3%	-1%
49	Cc1nn(C)c(Cl)c1NC(=O)OCc1ccc(Cl)cc1Cl
    1%	16µM*	-4%	0%	9%

Source: PubChem
